Measured values as given in patent US7122524B2, “Tripeptides and tripeptide derivatives for the treatment of postlesional disease of the nervous system” (Neurotell AG, priority 2002, dated 2006).

predicted absorption after peroral application (PAMPA classification): weakly absorbed
SMILES: NCC(=O)N[C@@H](Cc1ccccc1)C(=O)N1CCC[C@H]1C(=O)O [H-Gly-Phe-Pro-OH]
